In PubChem BioAssay (NCI):
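Dose response: 5 concentrations. Exposure: 48 h. Format: 96-well plates. Endpoint: linear interpolation; highest concentration if not reached. Abbreviation: GI50, concentration required for 50% inhibition of growth. TGI denotes the concentration required for complete inhibition of growth.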

System: MDA-MB-468 breast
Experiment: NCI anticancer screen, dose series, 48 h

In the case of `Cc1ccc(S(=O)(=O)n2cc([C@@]3(O)C[C@H](CC#N)OC3=O)c3ccccc32)cc1`, the GI50 is reported as 2.81 µM and the TGI is reported as 36.1 µM.
